# Screening results deposited in PubChem BioAssay by Broad Institute.
# Only some compounds are listed: those with a hit (about 1.7% of all), similar ones and a draw of the others.
# Yeast UUG start: modulators of start codon recognition fidelity in yeast; AID 602363; activity score, % at 18.7 µM; S. cerevisiae UUG-firefly luciferase reporter, luminescence/redox ratio; 0.13% of 350,000 active;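 active = replicate mean at a twofold rise or more, about +100% in these data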;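 note: firefly luciferase made from a UUG start codon reports start codon fidelity; reporter light over untreated wells divided by growth signal over untreated wells; some hits fall short of that in this replicate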
# CAL PDZ FP-1: untagged CAL PDZ binding inhibitors, primary screen, biochemical, fluorescence polarization, HTS. Golgi-associated PDZ and coiled-coil motif-containing protein (Homo sapiens), Q9HD26. AID 602252, 2012. inhibition, % at 24.9 µM. purified CAL PDZ, TMR-peptide fluorescence polarization, 1 h. 300,000 tested, 0.92% active;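 active means mean inhibition of at least 30% with at least half of replicates also reaching 30%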;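 further: 0% = DMSO neutral control and 100% = excess unlabeled competitor peptide PRC23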
# CAL PDZ FP-2: CAL PDZ peptide-binding inhibitors, primary screen, biochemical, fluorescence polarization, Cer-tagged CAL PDZ, HTS; inhibition, % at 20 µM; purified CAL PDZ, TMR-peptide fluorescence polarization, 1 h; AID 504414, 2011; 330,000 tested, 0.02% active; Golgi-associated PDZ and coiled-coil motif-containing protein (Homo sapiens), Q9HD26;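 active means highest replicate inhibition of at least 40%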;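 further: plate controls were DMSO neutral control wells for no effect and unlabeled competitor peptide control wells for full effect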
#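 System: tagged CAL PDZ domain. Schedule: 1 h room-temperature incubation prior to read. Signal: fluorescence polarization (mP). Measure: percent inhibition from loss of millipolarization.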
# DYRK1A inh: rat Dyrk1A kinase inhibitors, primary screen, biochemical, single point, plate reader; ADP-Glo luminescence, NFATc1 peptide; Dual specificity tyrosine-phosphorylation-regulated kinase 1A (Rattus norvegicus), Q63470; inhibition, % at 12.5 µM; 310,000 tested, 0.43% active; in the data active means inhibition above about 50%;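 further: plate controls were vehicle with enzyme for no effect and no enzyme for full effect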
# CDK5 inh: inhibitors of human CDK5/p35 kinase, primary screen, biochemical, single concentration; Cyclin-dependent kinase 5 (Homo sapiens) + Cyclin-dependent kinase 5 activator 1 (Homo …; Recombinant CDK5/p35, ADP-Glo luminescence, 60 min; inhibition, % at 10 µM; 330,000 tested, 0.01% active;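 active means highest replicate inhibition of at least 50% and at least 75% of replicates reaching 50%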;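 further: plate controls were DMSO neutral control for no effect and GW8510 at 10 µM for full effect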
# dFosB act: activators of delta FosB homodimer, primary screen, biochemical, fluorescence polarization, TAMRA-CDK5 oligo, single point; activation, % at 25 µM; 340,000 tested, 0.99% active; AID 493131, 2011; purified delta FosB; percent of positive-control signal above neutral wells;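 active means mean activation above about 17%, with every replicate also reaching it, limit read from the data, passing the limit was not always enough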
# ADP-Glo artifact: ADP-Glo luciferase interference without Dyrk1A, dose response, artefact control for Dyrk1A inhibitor project, biochemical, luminescence, cherry-pick, set 02; shares compounds with DYRK1A inh; AID 588348, 2011; AC50, µM (top dose mostly 12 µM), without a hit: at the top dose activity change, negative = inhibition; 1,300 tested, under 10 active; ADP-Glo luciferase artifact assay, no Dyrk1A;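 active means fitted half-maximal dose AC50 no more than ten times the top valid tested dose, with luminescence dropping as dose rises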
# Active calls of the source: *; . = no result given.
1. C=C(C)[C@@H](O)COc1c2ccoc2cc2oc(=O)ccc12
2. C[C@@H]1CCCCO[C@@H](CN(C)Cc2ccc(C(=O)O)cc2)[C@H](C)CN([C@H](C)CO)C(=O)c2cc(NS(C)(=O)=O)ccc2O1
3. CS(=O)(=O)c1ccc(-c2cn3cc(C(=O)O)ccc3n2)cc1
4. Cc1cccc(C)c1OCCOC(=O)c1n[nH]c2ccccc12
5. Cc1ccc(C)c(C(=O)COC(=O)c2n[nH]c3ccccc23)c1
6. C[N+](C)(CCOc1ccccc1)Cc1ccccc1 (tested in a mixture with another compound)

Screen / compound no.,1,2,3,4,5,6
DYRK1A inh,59*,.,77*,60*,-4,92*
CAL PDZ FP-2,-1,.,3,-2,0,-1
ADP-Glo artifact,8%,.,8%,9%,.,7%
CDK5 inh,1,.,1,-1,0,-2
dFosB act,-6,.,-6,-7,-17,-10
Yeast UUG start,-2,-2,-62,-13,.,-14
CAL PDZ FP-1,2,.,6,.,-2,1

7. COc1cccc(Cn2nnc(C(=O)NCCc3ccc(Cl)cc3)c2N)c1
8. Nc1c(C(=O)NCc2ccccc2)nnn1Cc1ccccc1
9. CCOc1ccc(Cn2nnc(C(=O)NCCc3ccc(Cl)cc3)c2N)cc1
10. O=C(C[C@H]1CC[C@H]2[C@@H](COC[C@H](O)CN2Cc2ccc(Cl)cc2)O1)Nc1nccs1
11. OCc1cc(C(O)CNCCCCCCOCCCCc2ccccc2)ccc1O (configuration not stated)
12. COc1ccc(NC(=O)N(C)C[C@H]2Oc3ccc(NC(=O)CCN4CCOCC4)cc3C(=O)N([C@@H](C)CO)C[C@@H]2C)cc1

Screen / compound no.,7,8,9,10,11,12
DYRK1A inh,56*,60*,4,.,53*,.
CAL PDZ FP-2,0,-1,-1,.,0,.
ADP-Glo artifact,9%,10%,.,.,9%,.
CDK5 inh,0,0,2,.,1,.
dFosB act,-3,2,1,.,-1,.
Yeast UUG start,-23,3,-3,-6,-18,-1
CAL PDZ FP-1,.,.,-3,.,-7,.

13. COc1ccc(NC(=O)N(C)C[C@H]2Oc3ccc(NC(=O)CCN4CCOCC4)cc3C(=O)N([C@H](C)CO)C[C@@H]2C)cc1
14. CNC(=O)C[C@@H]1CC[C@H]2[C@H](COc3ccc(NC(=O)Nc4ccccc4)cc3C(=O)N2C)O1
15. CC(C)CC#Cc1ccc2c(c1)O[C@@H](CN(C)C(=O)CN(C)C)[C@H](C)CN([C@H](C)CO)S2(=O)=O
16. CCNc1nc(N)nc(-c2cc(Cl)ccc2O)n1
17. O=C1N/C(=N/S(=O)(=O)Cc2ccccc2)S/C1=C/c1ccc2c(c1)OCO2
18. O=C1NC(=S)SC1=Cc1ccc2c(c1)OCO2

Screen / compound no.,13,14,15,16,17,18
DYRK1A inh,56*,.,.,67*,92*,49
CAL PDZ FP-2,1,.,.,-4,-5,0
ADP-Glo artifact,9%,.,.,6%,8%,.
CDK5 inh,0,.,.,35,1,1
dFosB act,-9,.,.,0,-15,1
Yeast UUG start,-7,2,4,-27,-2,-9
CAL PDZ FP-1,-1,.,.,-2,-7,-4

19. CCCN(CCC)CCNC(=O)c1cc2c(=O)n(C)c3ccccc3c2n1C
20. COc1ccc(/C=C2\SC(N3CCCCC3)=NC2=O)cc1
21. CCC(=O)N(C)C[C@H]1Oc2cc(-c3cncnc3)ccc2S(=O)(=O)N([C@@H](C)CO)C[C@@H]1C
22. COc1ccc(OC)c(C2=Nn3c(nnc3-c3ccco3)SC2)c1
23. COc1ccc(C2=Nn3c(nnc3-c3ccco3)SC2)cc1
24. Oc1ccc(C2=Nn3c(nnc3-c3ccco3)SC2)cc1O

Screen / compound no.,19,20,21,22,23,24
DYRK1A inh,70*,67*,.,74*,38,79*
CAL PDZ FP-2,-2,.,.,-3,-8,-2
ADP-Glo artifact,10%,12%,.,9%,.,14%
CDK5 inh,2,0,.,1,2,-1
dFosB act,-24,-7,.,-15,-36,4
Yeast UUG start,-3,-5,-1,3,-22,.
CAL PDZ FP-1,4,-3,.,.,-3,-10

25. O=C(N[C@H]1CC[C@@H](CCNS(=O)(=O)c2ccc(F)cc2)O[C@H]1CO)C1CCCC1
26. COc1cc(CO)cc(Br)c1OCc1cccnc1
27. O=C(C[C@@H]1C[C@@H]2c3cc(NS(=O)(=O)c4ccc(F)cc4)ccc3O[C@@H]2[C@H](CO)O1)NCC1CC1
28. CCOCCOc1nc2c(c(=O)n(C)c(=O)n2C)n1Cc1ccc(C)cc1
29. COc1cccc(/C=C2\Oc3cc(OCC(=O)N4Cc5ccccc5C[C@H]4C(=O)O)ccc3C2=O)c1
30. O=C1/C(=C/c2ccc3c(c2)OCO3)Oc2cc(OCC(=O)N3CCC[C@H]3C(=O)O)ccc21

Screen / compound no.,25,26,27,28,29,30
DYRK1A inh,.,51*,.,60*,16,71*
CAL PDZ FP-2,.,-4,.,-1,-2,-2
ADP-Glo artifact,.,9%,.,9%,.,16%
CDK5 inh,.,0,.,0,1,0
dFosB act,.,-11,.,-4,-11,2
Yeast UUG start,3,.,-15,-4,3,11
CAL PDZ FP-1,.,1,.,.,0,-1

31. c1ccc(Cc2nnc3sc(-c4ccc5c(c4)OCCO5)nn23)cc1
32. c1ccc(Cc2nnc3sc(-c4ccc5c(c4)OCO5)nn23)cc1
33. Cn1c2ccccc2c2cc(/C=N/NC(=O)c3cc(O)ccc3O)ccc21
34. Cn1c2ccccc2c2cc(/C=N/NC(=O)c3cc(O)cc(O)c3)ccc21
35. O=C(O)c1ccc(/C=N/Nc2ccc(C(F)(F)F)cn2)cc1
36. COc1cc(/C=N/Nc2ccc(C(F)(F)F)cn2)ccc1O

Screen / compound no.,31,32,33,34,35,36
DYRK1A inh,80*,15,61*,7,54*,28
CAL PDZ FP-2,-1,.,-3,-1,-1,1
ADP-Glo artifact,9%,.,9%,.,9%,.
CDK5 inh,-6,-1,2,-1,57*,17
dFosB act,-19,-17,-10,-5,5,-4
Yeast UUG start,-44,-3,-5,-6,.,.
CAL PDZ FP-1,.,-4,-5,-1,-6,7

# Continued (4 carried over from the part before).
33. Cn1c2ccccc2c2cc(/C=N/NC(=O)c3cc(O)ccc3O)ccc21
34. Cn1c2ccccc2c2cc(/C=N/NC(=O)c3cc(O)cc(O)c3)ccc21
35. O=C(O)c1ccc(/C=N/Nc2ccc(C(F)(F)F)cn2)cc1
36. COc1cc(/C=N/Nc2ccc(C(F)(F)F)cn2)ccc1O
37. O=C(CN1CCOCC1)N[C@@H]1CC[C@@H](CCNC(=O)Nc2cc(F)ccc2F)O[C@H]1CO
38. Oc1c(Br)cc(/C=N/n2c(-c3ccccc3)n[nH]c2=S)cc1Br
39. Oc1ccc(/C=N/n2c(-c3ccccc3)n[nH]c2=S)cc1Br
40. O=[N+]([O-])c1ccc(O)c(C=NNc2ccc(S(=O)(=O)O)cc2)c1
41. O=[N+]([O-])c1cccc(N/N=C/c2cc([N+](=O)[O-])ccc2O)c1
42. CCNC(=O)C[C@@H]1CC[C@@H]2[C@H](COc3ccc(NC(=O)c4cccs4)cc3C(=O)N2C)O1

Screen / compound no.,33,34,35,36,37,38,39,40,41,42
DYRK1A inh,61*,7,54*,28,.,1,56*,73*,6,.
CAL PDZ FP-2,-3,-1,-1,1,.,1,-1,0,.,.
ADP-Glo artifact,9%,.,9%,.,.,.,11%,9%,.,.
CDK5 inh,2,-1,57*,17,.,2,8,1,2,.
dFosB act,-10,-5,5,-4,.,1,-4,-9,5,.
Yeast UUG start,-5,-6,.,.,2,-19,-24,-17,.,-3
CAL PDZ FP-1,-5,-1,-6,7,.,-1,.,8,-8,.
